# Experimental data published in PubChem BioAssay AID938 (National Center for Advancing Translational Sciences (NCATS), 2007).
# Only a part is listed here, and it is no random draw. Records with an inconclusive call do not appear. The source made the active and inactive calls. Calls follow the shape of the dose curve; as a rule, active = well fitted activation curve with a large enough effect; inconclusive = small, poorly fitted or top-dose-only effect; inactive = no such curve, though single readings can be large or run the other way.
# Test: qHTS Assay for Agonists of the Thyroid Stimulating Hormone Receptor: Activators of Intracellular cAMP Concentrations in Parental HEK 293; also: % of control where 0% means no effect; nearly all actives have a fitted effect of over 55% in size
# Conditions: parental HEK293 CNG cAMP sensor, membrane potential fluorescence; at 57.1 µM (top of the series)
row,SMILES,activation
1,CCOP1(=S)c2c(C)nn(CCC#N)c2N=C(c2ccc(F)cc2)N1C (stereo unspecified),inactive: 10.3%
